According to patent US20080227813A1, “Pharmaceutical compositions and methods for treating diseases associated with neurodegeneration” (priority 2006, published 2008):

Tested on: HSF-1, Hsp70 and Hsp90
Assay: HSF-1 activation and Hsp70/Hsp90 expression in spinal cord of mSOD1(G93A) mice
Conditions: lumbar spinal cord, 120 days of age, 10 mg/kg ip daily

[O-][n+]1cccc(/C(Cl)=N/OC[C@H](O)CN2CCCCC2)c1 [Compound I, N-[2-hydroxy-3-(1-piperidinyl)-propoxy]-pyridine-1-oxide-3-carboximidoyl chloride]
intensity of Hsp70 and Hsp90 immunoreactivity in motor neurons: clear increase
